Experimental data reported in PubChem BioAssay AID2171 (The Scripps Research Institute Molecular Screening Center, 2009).
This is a selection; strong and weak results do not stand in their true shares. The source made the active and inactive calls.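 How the source made its calls: active means inhibition above the hit cutoff set in the earlier primary screen (cut at about 27% in these data); inactive means the rest.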

Amino acid sequences for entries named in this document (tags omitted). A change or cut given only in a name is not applied to a line headed by its entry.
UniProt Q9Y570: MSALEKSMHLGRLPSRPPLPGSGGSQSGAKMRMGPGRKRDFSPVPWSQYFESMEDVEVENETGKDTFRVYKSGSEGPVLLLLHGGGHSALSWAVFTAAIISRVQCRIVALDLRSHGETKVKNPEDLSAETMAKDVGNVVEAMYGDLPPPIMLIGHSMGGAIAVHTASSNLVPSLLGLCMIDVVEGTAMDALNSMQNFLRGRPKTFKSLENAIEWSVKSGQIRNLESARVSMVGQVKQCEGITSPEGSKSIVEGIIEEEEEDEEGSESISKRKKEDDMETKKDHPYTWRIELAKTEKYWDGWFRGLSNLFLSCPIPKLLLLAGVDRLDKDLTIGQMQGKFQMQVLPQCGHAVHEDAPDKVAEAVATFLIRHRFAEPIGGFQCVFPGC

target: Protein phosphatase methylesterase 1 (Homo sapiens) (UniProt Q9Y570); assay: PME-1 inhibitor activity retest, confirmation, biochemical, fluorescence polarization, FP-Rh probe, triplicate (AID 2171); settings: recombinant PME-1, FP-Rh probe fluorescence polarization; at 5.9 µM; stronger effect = higher value;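 further: 0% = enzyme with DMSO and 100% = wells lacking PME-1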

SMILES | inhibition
CN(C)C(=O)c1cc([N+](=O)[O-])cc2c1-c1c(cc([N+](=O)[O-])cc1[N+](=O)[O-])C2=O | active: 136%
